The values that follow come from patent US11274079B2 (DALIAN INSTITUTE OF CHEMICAL PHYSICS, CHINESE ACADEMY OF …, priority 2018, dated 2022).

Chains of the proteins cited; added tags and fusions are not shown. Lines headed by an entry give the natural chain unless they say otherwise; changes in a name come on top.
UniProt P11229: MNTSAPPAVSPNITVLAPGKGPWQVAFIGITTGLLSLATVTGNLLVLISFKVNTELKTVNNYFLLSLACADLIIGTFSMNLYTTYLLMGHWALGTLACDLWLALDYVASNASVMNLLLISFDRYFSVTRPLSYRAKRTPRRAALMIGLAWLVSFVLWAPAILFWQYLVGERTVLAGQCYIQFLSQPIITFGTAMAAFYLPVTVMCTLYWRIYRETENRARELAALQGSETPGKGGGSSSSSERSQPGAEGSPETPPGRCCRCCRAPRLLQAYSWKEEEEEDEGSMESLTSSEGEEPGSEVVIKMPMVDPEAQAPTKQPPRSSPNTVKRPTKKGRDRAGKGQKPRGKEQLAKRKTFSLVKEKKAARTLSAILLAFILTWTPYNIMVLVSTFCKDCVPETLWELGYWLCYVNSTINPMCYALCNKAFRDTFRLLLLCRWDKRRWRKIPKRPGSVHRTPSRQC
UniProt P20309, whole entry: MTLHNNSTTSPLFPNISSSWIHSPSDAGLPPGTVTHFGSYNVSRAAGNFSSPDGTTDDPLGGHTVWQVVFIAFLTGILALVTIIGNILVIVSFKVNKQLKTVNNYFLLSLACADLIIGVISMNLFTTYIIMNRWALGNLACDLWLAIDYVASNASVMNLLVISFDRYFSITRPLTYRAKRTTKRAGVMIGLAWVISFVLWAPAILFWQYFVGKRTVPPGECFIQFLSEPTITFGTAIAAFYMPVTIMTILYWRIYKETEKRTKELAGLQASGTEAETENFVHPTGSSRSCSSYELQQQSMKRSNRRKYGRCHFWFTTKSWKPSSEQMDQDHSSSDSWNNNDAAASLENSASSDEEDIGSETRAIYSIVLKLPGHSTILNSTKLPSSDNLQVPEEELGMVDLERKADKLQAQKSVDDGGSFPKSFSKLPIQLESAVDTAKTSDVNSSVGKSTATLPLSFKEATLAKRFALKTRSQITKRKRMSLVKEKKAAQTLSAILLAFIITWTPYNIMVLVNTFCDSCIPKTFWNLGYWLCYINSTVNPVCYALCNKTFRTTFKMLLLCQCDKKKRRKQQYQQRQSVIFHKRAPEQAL

Structures can show the parent of a compound that is named as a salt. Where two headings read alike, the source gives them in different places.

The target of one assay is T1, M1 receptor (Homo sapiens, UniProt P11229).
T1 construct: expressed in transfected cells; host or cells: CHO-K1
As to the kind of experiment: DMR assay, antagonism of acetylcholine in CHO-K1 cells stably transfecting the M1 receptor. Format: cell-based. The note with it: for IC50: DMR, acetylcholine 1 μM, 1 h pretreatment, time point 5 min; for antagonistic activity against the M1 receptor, in words: structure-activity comparison with parent compound. As for the experimental part: (§1) The present invention relates to the antagonistic activity of the compound against the muscarinic receptor, which is primarily assessed by a cell-level dynamic mass redistribution (DMR) assay method. All tests are carried out on Epic platform, wherein the target model of the muscarinic receptor M1 is the CHO-K1 ceil model stably transfecting the M1 receptor, the target model of M3 is the HT-29 cell model endogenously highly expressing the M3 receptor, and the selected probe molecule is acetylcholine. Tire probe molecule acetylcholine is dissolved in water, while all other compounds are dissolved in DMSO.
The inoculated cell plate is placed in a cell incubator for culture for 12 h until the cell growth and fusion degree reaches about 95%, and the activity assay is carried out. The culture medium is sucked from the cultured ceils, the buffer salt specified by the test is added with a volume of 30 μL per orifice and is stabilized for 1 h. After the baseline is stable, a 2-min baseline is established, and different concentrations of compounds to be tested are added to test the cultured cells for 1 h. After the cells are pretreated with the compounds to be tested for 1 h, the 2-min baseline is re-established, and acetylcholine having a concentration of 1 μM is added to test the cultured cells for 1 h.

Another assay has as its target T2, M3 receptor (Homo sapiens, UniProt P20309).
T2 construct: HT-29 cell model endogenously highly expressing the M3 receptor; endogenous in cells; host or cells: HT-29
In words: DMR assay, antagonism of acetylcholine in HT-29 cells endogenously expressing the M3 receptor. Format: cell-based. The note with it: for IC50: DMR, acetylcholine 16 μM, 1 h pretreatment, time point 30 min; for antagonistic activity against the M3 receptor, in words: structure-activity comparison with parent compound. As for the experimental part: as §1
The inoculated cell plate is placed in a cell incubator for culture for 20 h until the cell growth and fusion degree reaches about 95%, and the activity assay is carried out. The culture medium is sucked from the cultured cells, the buffer salt specified by the test is added with a volume of 30 μL per orifice and is stabilized for 1 h. After the baseline is stable, a 2-min baseline is established, and different concentrations of compounds to be tested are added to test the cultured cells for 1 h.

Setting [1] is: M1 Receptor IC50, CHO-K1-M1 cells.

Broadly, the IC50 is the concentration that gives 50% inhibition. Consider `Cc1ccc(O)c(C(CC2CCCCN2C)c2ccccc2)c1` (stereo not shown), for which the IC50 was determined as 26.5 ± 2.5 nM at M1 receptor (setting [1]) and 151 ± 15.3 nM at M3 receptor (M3 Receptor IC50, HT-29 cells).
`CCc1ccc(O)c(C(CC2CCCCN2C)c2ccccc2)c1` (stereo not shown) [listing 1 of 2 here]: the IC50 on M1 receptor (CHO-K1-M1 cells, read-out: M1 Receptor IC50) was determined as 45.6 ± 7.8 nM; at M3 receptor (HT-29 cells, read-out: M3 Receptor IC50) it was 10.5 ± 1.1 nM.
For the molecule `CCc1ccc(O)c(C(CC2CCCCN2C)c2ccccc2)c1` (stereo not shown) [listing 2 of 2 here], the IC50 came out at 9.4 ± 1.3 nM on M1 receptor (setting [1]) and 109 ± 9 nM at M3 receptor (M3 Receptor IC50, HT-29 cells).
Turning to `Cc1ccc(O)c(C(CC2CCCCN2C)c2ccccc2)c1` (single isomer, unassigned) [listing 1 of 3 here], the IC50 on M1 receptor (setting [1]) was found to be 11.7 ± 1.6 nM; on M3 receptor (M3 Receptor IC50, HT-29 cells) it was 40.7 ± 10.6 nM.
Taken in the same sequence, the figures for `Cc1ccc(O)c(C(CC2CCCCN2C)c2ccccc2)c1` (single isomer, unassigned) [listing 2 of 3 here] were 11.7 ± 1.6 nM and 40.7 ± 10.6 nM.
For the molecule `Cc1ccc(O)c(C(CC2CCCCN2C)c2ccccc2)c1` (single isomer, unassigned) [listing 3 of 3 here], the IC50 on M1 receptor (setting [1]) was determined as 31.7 ± 11.6 nM; on M3 receptor (M3 Receptor IC50, HT-29 cells), 120 ± 35.9 nM.
For `Cc1ccc(O)c(C(CC2CCCCN2C)c2ccccc2)c1` (single isomer, unassigned) [Hydrochloride], in that order: 70.8 ± 9.2 nM and 290 ± 32.8 nM.
Consider `CN1CCCCC1CC(c1ccccc1)c1ccccc1O` (single isomer, unassigned) [I-2a-Cl, 2-[2-(2-hydroxy-phenyl)-phenethyl]-N-methylpiperidine hydrochloride], for which the IC50 on M1 receptor (setting [1]) stood at 250 ± 176 nM; at M3 receptor (M3 Receptor IC50, HT-29 cells), 74.6 ± 33.9 nM.
On to `CCc1ccc(O)c(C(CC2CCCCN2C)c2ccccc2)c1` (stereo not shown) [Hydrochloride], for which the IC50 on M1 receptor (setting [1]) amounted to 46.9 ± 3.3 nM; at M3 receptor (M3 Receptor IC50, HT-29 cells), 275 ± 248 nM. Besides, at M1 receptor (Hydrochloride), the “antagonistic activity against the M1 receptor, in words” value was “decreased”. Further, on M3 receptor, the “antagonistic activity against the M3 receptor, in words” value is “decreased”.
On to `Cc1ccc(O)c(C(CC2CCCCN2C)c2ccccc2)c1` (stereo not shown) [Hydrochloride], for which, on M1 receptor, the “antagonistic activity against the M1 receptor, in words” value was “decreased”. Further, the “antagonistic activity against the M3 receptor, in words” value at M3 receptor is given as “decreased”.
In the case of `CN1CCCCC1CC(c1ccccc1)c1ccccc1O` (stereo not shown) [I-2a-Cl, 2-[2-(2-hydroxy-phenyl)-phenethyl]-N-methylpiperidine hydrochloride], the “antagonistic activity against the M1 receptor, in words” value at M1 receptor is reported as “decreased”. Moreover, the “antagonistic activity against the M3 receptor, in words” value on M3 receptor is reported as “decreased”.
With `CN1CCCCC1CC(c1ccccc1O)c1ccccc1O` (stereo not shown) [I-3-Cl, 2-[2,2-bis(2-hydroxyphenyl)-ethyl]-N-methylpiperidine Hydrochloride], the “antagonistic activity against the M1 receptor, in words” value at M1 receptor is reported as “decreased”. Further, the “antagonistic activity against the M3 receptor, in words” value on M3 receptor was “decreased”.
For the molecule `CN1CCCCC1CC(c1ccccc1)c1ccccc1O` (stereo not shown) [II-2a, 2-[2-(2-hydroxy-phenyl)phenethyl]-N-methylpiperidine], the half-inhibitory concentration (IC50) worked out at 29.2 ± 6.5 nM at M1 receptor (setting [1]) and 36.5 ± 5 nM on M3 receptor (M3 Receptor IC50, HT-29 cells).
